Results on one compound are retold here after PMC9103758 (International Journal of Molecular Sciences, 2022).

Protein sequences, listed by entry. Tags and fused reporters are not part of them. Lines headed by an entry give the natural chain unless they say otherwise; changes in a name come on top.
UniProt Q12809: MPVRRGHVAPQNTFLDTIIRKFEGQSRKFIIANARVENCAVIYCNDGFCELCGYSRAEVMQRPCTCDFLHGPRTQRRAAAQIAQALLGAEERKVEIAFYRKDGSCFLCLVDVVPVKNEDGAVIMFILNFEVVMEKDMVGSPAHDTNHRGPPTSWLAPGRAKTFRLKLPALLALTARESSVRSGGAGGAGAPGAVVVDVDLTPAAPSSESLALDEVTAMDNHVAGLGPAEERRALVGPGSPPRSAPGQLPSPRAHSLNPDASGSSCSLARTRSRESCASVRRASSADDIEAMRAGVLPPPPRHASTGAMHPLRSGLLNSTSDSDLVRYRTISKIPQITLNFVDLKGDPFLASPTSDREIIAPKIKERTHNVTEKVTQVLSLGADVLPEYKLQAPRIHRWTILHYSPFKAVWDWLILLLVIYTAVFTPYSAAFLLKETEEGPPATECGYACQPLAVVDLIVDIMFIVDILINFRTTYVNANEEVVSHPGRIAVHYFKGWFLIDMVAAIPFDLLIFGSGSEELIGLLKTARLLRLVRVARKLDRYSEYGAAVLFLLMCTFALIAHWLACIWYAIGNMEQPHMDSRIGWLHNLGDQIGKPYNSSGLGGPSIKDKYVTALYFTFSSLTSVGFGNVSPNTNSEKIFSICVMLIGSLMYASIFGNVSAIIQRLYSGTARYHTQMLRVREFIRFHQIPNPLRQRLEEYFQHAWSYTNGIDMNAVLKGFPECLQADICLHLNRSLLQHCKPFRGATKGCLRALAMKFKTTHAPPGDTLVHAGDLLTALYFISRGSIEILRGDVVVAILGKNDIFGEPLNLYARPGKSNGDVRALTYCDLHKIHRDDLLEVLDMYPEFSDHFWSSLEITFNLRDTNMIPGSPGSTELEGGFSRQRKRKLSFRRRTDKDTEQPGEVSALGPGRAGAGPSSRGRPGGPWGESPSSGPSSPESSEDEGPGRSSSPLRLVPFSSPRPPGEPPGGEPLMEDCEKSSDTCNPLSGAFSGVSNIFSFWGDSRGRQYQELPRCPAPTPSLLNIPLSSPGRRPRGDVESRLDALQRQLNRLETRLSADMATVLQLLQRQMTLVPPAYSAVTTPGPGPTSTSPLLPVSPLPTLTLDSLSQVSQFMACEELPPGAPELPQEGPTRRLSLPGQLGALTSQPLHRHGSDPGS

Structures are written as SMILES.

The target in the data set is T1, hERG K+ channel (Homo sapiens, UniProt Q12809).
T1 construct: expressed in transfected cells; called HEK293
In words: FluxOR thallium flux assay in HEK293T cells expressing hERG. In kind it is cell-based. The conditions noted are these: 50 μM. As to the method: […]. (C) Summary of dose-response (mean ± S.E., n = 5). […]. (F) Summary of dose−response (mean ± S.E., n = 6).
HEK293 cells stably expressing human Kv11.1 (hERG) were cultured in 96-well plates. After 48 h, the cells were incubated at 28 °C for 4 h to increase the membrane expression of hERG. The culture medium was replaced with a 80 μL/well of FluxOR (Invitrogen, Waltham, MA, USA) loading buffer and incubated for 1 h at 37 °C in the dark. After removing the loading buffer, 100 μL of assay buffer was added to each well. To measure the effect of VI-116 and DCPIB on hERG channels, the cells were pretreated with test compounds for 10 min. FluxOR fluorescence (excitation/emission: 490/525 nm) was recorded for 4 s before the addition of 20 μL of stimulus buffer containing thallium ions, and the fluorescence was recorded. FluxOR fluorescence was recorded and analyzed using the FLUOstar Omega microplate reader (BMG Labtech, Ortenberg, Germany) and the MARS Data Analysis Software (BMG Labtech, Ortenberg, Germany). All buffers were prepared according to the manufacturer’s instructions.
A general note: hERG is a cardiac potassium channel; its block is linked to QT prolongation.

For `COc1cc(N)c(Cl)cc1C(=O)NC1CCN(CCCOc2ccc(F)cc2)CC1OC` (stereo not shown) [cisapride, reference compound], the “inhibition of hERG channel” value was “inhibited”.
